# PubChem BioAssay AID623870 (Broad Institute, 2012)
# This is a selection; strong and weak results do not stand in their true shares. Active and inactive are the calls of the source.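 Rule for the calls: active = mean inhibition of replicates at least 50% and at least half of replicates each reaching 50%; inconclusive = half or more replicates reach 50% but mean below 50%; inactive = the rest.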
# Biological target: Transforming acidic coiled-coil-containing protein 3 (Homo sapiens) (UniProt Q9Y6A5)
# Assay: disruptors of ARNT/TACC3 protein interaction, primary screen, biochemical, AlphaScreen, single concentration (AID 623870);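 note: 0% = complete ARNT plus TACC3 wells and 100% = ARNT alone without TACC3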
# Settings: AlphaScreen His-ARNT PAS-B/GST-TACC3 binding, luminescence; at 9.99 µM; hits give high values; TACC3 fragment carries E629A point mutation
row,SMILES,inhibition
1,O=[As](O)(c1ccc(O)cc1)c1ccccc1O,inactive: -5.01%
2,C[As](=O)(O)c1cccc(C(=O)O)c1,inactive: -13.5%
3,O=[N+]([O-])c1ccc(-c2cc([N+](=O)[O-])c(O)c([N+](=O)[O-])c2)cc1,inactive: 5.06%
4,Cc1ccc2nc3c(c(C)c2c1)CC(C(Cl)Cl)S3 (stereo not drawn),inactive: -7.82%
5,Cc1ccc(OP(=O)(Nc2ccc([N+](=O)[O-])cn2)Oc2ccc(C)cc2)cc1,inactive: -6.53%
6,CC(C)c1ccc(OP(=O)(Nc2ccccn2)Oc2ccccc2F)cc1 (stereo not drawn),inactive: 0.27%
7,COC(=O)C1(C)COP(=O)(N2CCCCCC2)OC1 (stereo not drawn),inactive: -17.2%
8,ClCCSc1nnc(-c2cccnc2)o1,inactive: -2.97%
9,CCN(CC)C(=S)SC(NC=O)C(Cl)(Cl)Cl (stereo not drawn),inactive: -2.15%
10,O=C(OC1CN2CCC1CC2)c1cccc2[nH]cnc12 (stereo not drawn),inactive: 1.13%
11,CC(C)NC(=O)NP(=O)(Oc1ccccc1)Oc1ccccc1,inactive: 4.19%
12,O=[N+]([O-])c1cc([N+](=O)[O-])c(-c2ccn[nH]2)s1,inactive: 5.73%
13,CS(=O)(=O)c1cc([N+](=O)[O-])c2no[n+]([O-])c2c1,inactive: 16.3%
14,CCOP1(=S)c2c(C)nn(CCC#N)c2N=C(c2ccccc2F)N1C (stereo not drawn),inactive: -0.868%
15,O=P(Nc1nccs1)(c1ccccc1)c1nc2ccccc2s1 (stereo not drawn),inactive: 1.39%
16,O=P(Nc1nccs1)(Oc1ccccc1)Oc1ccccc1,inactive: -1.01%
17,Nc1ccccc1[As](=O)(O)c1ccccc1,inactive: -0.776%
18,O=C(O)COc1ccc([As](=O)(O)O)cc1[N+](=O)[O-],inactive: 0.494%
19,NC(=O)Nc1ccc([As](=O)(O)O)cc1,inactive: -4.85%
20,CN(C)C(=O)c1cc([N+](=O)[O-])cc2c1-c1c(cc([N+](=O)[O-])cc1[N+](=O)[O-])C2=O,inactive: 13.8%
21,O=[N+]([O-])c1ccc2c(c1)nnn2O,inactive: -1.76%
22,CN(C(=O)Cc1ccc(Cl)c(Cl)c1)[C@H]1CC[C@@]2(CCCO2)C[C@@H]1N1CCCC1,inactive: 0.411%
23,N#CCCN(C(=O)COC(=O)C(O)(c1ccccc1)c1ccccc1)c1ccc(F)cc1,inactive: -3.63%
24,CN(C(=O)Cc1ccccc1)[C@@H]1CC[C@]2(CCCO2)C[C@H]1N1CCCC1,inactive: 1.79%
25,CCOP1(=S)c2c(C)nn(CCC#N)c2N=C(c2ccc(F)cc2)N1C (stereo not drawn),inactive: -16.5%
26,COc1cc(C(=O)NCC2(N3CCOCC3)CCCCC2)cc(Cl)c1OC(C)C,inactive: -5.72%
27,O=[As](O)(O)c1cccnc1,inactive: -5.91%

row,SMILES,inhibition
1,CS(=O)(=O)c1ccc(Cl)c(NC(=O)COC(=O)C(O)(c2ccccc2)c2ccccc2)c1,inactive: 0.14%
2,O=C(OC1CN2CCC1CC2)c1ccc(Cl)cc1 (stereo not drawn),inactive: -0.764%
3,O=[As](O)(c1cccc(O)c1)c1cccc(O)c1,inactive: 0.159%
4,Cc1cccc(OCC(=O)OC2CN3CCC2CC3)c1 (stereo not drawn),inactive: -5.64%
5,CCCOP(=S)(Nc1nc(N)cc(=O)[nH]1)OCCC,inactive: -5.68%
6,Cc1ccc(NCCc2c([N+](=O)[O-])cc([N+](=O)[O-])cc2[N+](=O)[O-])cc1,inactive: 8.65%
7,Nc1cccc2c([As](=O)(O)O)cccc12,inactive: 7.21%
8,CCOP(=O)(Nc1ccc(C)cn1)OCC,inactive: -8.63%
9,O=P1(Nc2ccccn2)COc2ccccc2OC1,inactive: -0.5%
10,CCC1=CC2Cc3nc4ccc(Cl)cc4c(N)c3C(C1)C2 (stereo not drawn),inactive: 33.9%
11,CCOP(=O)(NC(=NC(C)c1ccccc1)NC(C)c1ccccc1)OCC (stereo not drawn),inactive: -0.582%
12,Clc1n[nH]nc1-c1nn[nH][15n]1,inactive: 8.57%
13,CC(C)(C)C(=O)NC(Sc1ncccn1)C(Cl)(Cl)Cl (stereo not drawn),inactive: 4.92%
14,CC1(CBr)Cn2c(nc3ccccc3c2=O)S1 (stereo not drawn),inactive: -3.15%
15,CC(C)/C=N\N=C(\N)N[N+](=O)[O-],inactive: -6.08%
16,CN(C(=O)Cc1ccc(Cl)c(Cl)c1)[C@@H]1CCCC[C@H]1N1CCCC1,inactive: -1.55%
17,Cc1nn(-c2ccccc2)c2c1P(=O)(N1CCOCC1)N(C)C(c1ccccc1)=N2 (stereo not drawn),inactive: -0.559%
18,CC1CCC(C(C)C)C(OP(=O)(Nc2ccccn2)c2ccccc2)C1 (stereo not drawn),inactive: 0.411%
19,Cc1ccc(C(=O)OC2CN3CCC2CC3)cc1 (stereo not drawn),inactive: -12.4%
20,O=C(/C=C/c1ccccc1)OC1CN2CCC1CC2 (stereo not drawn),inactive: -5.08%
21,CCCC1OP(=O)(Nc2ccccc2)OCC1CC (stereo not drawn),inactive: -8.47%
22,CN(C)C1(CNC(=O)c2ccc(S(C)(=O)=O)cc2)CCCCC1,inactive: 3.54%
23,O=P1(Nc2ncccn2)COc2ccccc2OC1,inactive: -3.31%
24,O=P1(Nc2ccc(Br)cn2)COc2ccccc2OC1,inactive: 1.17%
25,O=[As](O)(c1cccs1)c1cccs1,inactive: 1.73%
26,Nc1cccc([As](=O)(O)c2ccccc2)c1,inactive: 3.62%
